Results taken from patent publication US6277886A (priority 1996, dated 2001).

Columns and labels:
[1] = system: axotomized immature rat facial mononeurons; settings: cited from earlier work
ICR male mice = experiment: Hypobaric hypoxia model, survival time of mice at 200 mmHg; format: in vivo; settings: one hour prior to hypoxia, control = 100
Source text: The model used is analogous to the one described by M. Nakanishi et al., Life Sci. 13: 467-476 (1973); and by Y'Oshiro et al., J. Med. Chem. 34: 2014-2023 (1991). A group of 4 ICR male mice each weighing 20-25 g were placed in a 2.5 L glass chamber (A) at atmospheric pressure. Chamber A is connected to a 12 L chamber (B) through a valve which is initially […] closed. The air in chamber B was evacuated to a pressure of 100 mmHg. The valve between the two chambers was opened rapidly, whereupon the pressure in chamber A fell within 14 seconds to 200 mmHg. The survival time of the mice in chamber A was determined to a maximum hypobaric exposure of 15 minutes. Effect of drug pretreatment on survival is calculated as the percent of the survivai time of the drug-treated group as compared to saline-injected or vehicle-injected group. Control groups were tested twice, before and after each experiment and consisted of 12 to 16 mice, 4 per group. Each tested group always consisted of 4 mice in order to ensure a constant residual volume of oxygen in all tests. […] The effect of each dose of the test drug was determined in duplicate, using a total of 8 mice, 4 per group. All drugs were administered i.p. one hour prior to hypoxia. Positive reference drugs were sodium pentobarbital at a dose of 40 mg/kg, or diazepam at a dose of 10 mg.kg, given 0.5 hour prior to hypoxia.

MAO-A/MAO-B = settings: cited from earlier work

SMILES	activity in increasing the survival of axotomized immature rat facial mononeurons, relative to R(-) enantiomer of deprenyl [1] [times less active]	% protection ± SD relative to control (relative survival time) (ICR male mice; 10 mg/kg i.p.) [%]	% protection ± SD relative to control (relative survival time) (ICR male mice; 50 mg/kg i.p.) [%]	% protection ± SD relative to control (relative survival time) (ICR male mice; 100 mg/kg i.p.) [%]	safety factor suggested by in vitro MAO-A/MAO-B ratio (MAO-A/MAO-B; about 100 or more)	safety factor in experimental systems in vitro (MAO-A/MAO-B; in vitro)
C#CCN(C)[C@@H](C)Cc1ccccc1 [S(+) deprenyl]	2000	–	–	–	–	–
C#CCN(C)[C@H](C)Cc1ccccc1 [R(-)Deprenyl]	–	97 ± 70	79 ± 23	102 ± 75	≥ 100	about 400
